The target of the experiment is Adenosine receptor A2a (Homo sapiens, UniProt P29274). Kind of experiment: Displacement of [3H]SCH58261 from human recombinant A2A receptor expressed in HEK293 cells. It is filed as cell-based. (Displacement assays read how much labelled ligand stays bound in the presence of the test substance.)

The results in this text go back to ChEMBL document CHEMBL1268900, “Discovery of 2-aminoimidazopyridine adenosine A(2A) receptor antagonists” (Bioorg Med Chem Lett, 2010).

On to `COCCCn1c(NC(=O)c2cccc(C#N)c2)nc2cc(C(=O)N3CCCC[C@@H]3C)cnc21`, for which the Ki (usually a dissociation constant, usually derived from enzyme kinetics or from competition with a known ligand) came to 11 nM.

`COCCCn1c(NC(=O)c2cccc(C#N)c2)nc2cc(C(=O)N3CCCC[C@H]3C)cnc21`: the Ki amounted to 7.7 nM.
